Experimental data reported in patent US20260384421A1, “NOVEL COMPOUNDS THAT CAN BE USED AS THERAPEUTIC AGENTS” (published 2026).
Read-outs that look alike come from different tables or passages of the source.

What was measured:
LL/2 cells = assay: alamarBlue proliferation assay with LL/2 cells; details: read-out: Activity on LL/2: IC50; LL/2 murine Lewis lung carcinoma cells, DMEM medium, 10% FBS
NB-4 cells = assay: alamarBlue proliferation assay with NB-4 cells; details: read-out: Activity on NB-4: IC50, RPMI 1640 medium, 10% FBS
A-549 cells = assay: alamarBlue proliferation assay with A-549 cells; details: read-out: Activity on A-549: IC50, DMEM medium, 10% FBS
BHY cells = assay: alamarBlue proliferation assay with BHY cells; details: read-out: Activity on BHY: IC50, DMEM medium, 10% FBS
HCT-116 cells = assay: alamarBlue proliferation assay with HCT-116 cells; details: read-out: Activity on HCT-116: IC50, McCoy's 5A medium, 10% FBS
TANQUE cells = assay: alamarBlue proliferation assay with TANQUE cells; details: read-out: Activity on TANOUE: IC50, RPMI 1640 medium, 10% FBS
MDA-MB-231 cells = assay: alamarBlue proliferation assay with MDA-MB-231 cells (glucose-free Leibovitz's L-15 medium)
[1] = read-out: Activity (MDA), MDA-MB-231 cells, antiproliferative activity, class by IC50
[2] = read-out: Activity on MDA-MB-231 (IC50), glucose-free Leibovitz's L-15, 10% FBS, day 5, alamarBlue
[3] = read-out: Activity (MDA): antiproliferative activity on MDA-MB-231 cells, IC50 category, MDA-MB-231 cells cultivated in glucose-free Leibovitz's L-15 medium

| Structure (SMILES) | IC50 (LL/2 cells) | IC50 (NB-4 cells) | IC50 (A-549 cells) | IC50 (BHY cells) | IC50 (HCT-116 cells) | IC50 (TANQUE cells) | IC50 (MDA-MB-231 cells; [1]) | IC50 (MDA-MB-231 cells; [2]) | IC50 (MDA-MB-231 cells; [3]) |
| --- | --- | --- | --- | --- | --- | --- | --- | --- | --- |
| CN(C)C(=O)c1ccc(CN2CCN(C(=O)c3ccc(Oc4ccc(C5CCC6(CC5)OCCO6)cc4CO)cc3)CC2)cc1 | ≤ 5000 nM | ≤ 1000 nM | ≤ 200 nM | ≤ 1000 nM | ≤ 1000 nM | ≤ 1000 nM | < 1000 nM | ≤ 200 nM |  |
| COC1CCC(c2ccc(Oc3ccc(C(=O)N4CCN(Cc5ccc(C(F)(F)F)cn5)CC4)cc3)c(CO)c2)CC1 (stereo not drawn) | ≤ 200 nM | ≤ 200 nM | ≤ 200 nM | ≤ 200 nM | ≤ 200 nM | ≤ 200 nM | < 1000 nM | ≤ 200 nM |  |
| O=C(c1ccc(Oc2ccc(C3CCC4(CC3)OCCO4)cc2CO)cc1)N1CCN(Cc2ccccc2Cl)CC1 | ≤ 5000 nM | ≤ 1000 nM | ≤ 200 nM | ≤ 1000 nM | ≤ 1000 nM | ≤ 1000 nM |  | ≤ 200 nM | < 1000 nM |
| COC1CCC(c2ccc(Oc3ccc(C(=O)N4CCN(Cc5ccc(Cl)cc5)CC4)cc3)c(CO)c2)CC1 (stereo not drawn) | ≤ 200 nM | ≤ 200 nM | ≤ 200 nM | ≤ 200 nM | ≤ 200 nM | ≤ 200 nM | < 1000 nM | ≤ 200 nM |  |
| COC1CCC(c2ccc(Oc3ccc(C(=O)N4CCN(Cc5ccc(OCC(F)(F)F)cc5)CC4)cc3)c(CO)c2)CC1 (stereo not drawn) | ≤ 200 nM | ≤ 200 nM | ≤ 200 nM | ≤ 200 nM | ≤ 200 nM | ≤ 200 nM | < 1000 nM | ≤ 200 nM |  |
| COC1CCC(c2ccc(Oc3ccc(C(=O)N4CCN(Cc5cnc6ccccc6c5)CC4)nc3)c(CO)c2)CC1 (stereo not drawn) | ≤ 200 nM | ≤ 200 nM | ≤ 200 nM | ≤ 200 nM | ≤ 200 nM | ≤ 200 nM | < 1000 nM | ≤ 200 nM |  |
| O=C(c1ccc(Oc2ccc(C3CCC4(CCCO4)CC3)cc2CO)cc1)N1CCN(Cc2ccccc2)CC1 (stereo not drawn) | ≤ 5000 nM | ≤ 200 nM | ≤ 200 nM | ≤ 200 nM | ≤ 200 nM | ≤ 200 nM |  | ≤ 200 nM |  |
| COc1ccc(CN2CCN(C(=O)c3ccc(Oc4ccc(C5CCCCC5)cc4CO)cc3)CC2)cc1 | ≤ 5000 nM | ≤ 200 nM | ≤ 200 nM | ≤ 200 nM | ≤ 200 nM | ≤ 200 nM | < 1000 nM | ≤ 200 nM |  |
| O=C(c1ccc(Oc2ccc(C3CCC4(CC3)OCCCO4)cc2CO)cc1)N1CCN(Cc2ccccc2)CC1 | ≤ 5000 nM | ≤ 1000 nM | ≤ 200 nM | ≤ 1000 nM | ≤ 200 nM | ≤ 1000 nM |  | ≤ 200 nM | < 1000 nM |
| O=C(c1ccc(Oc2ccc(C3CCC4(CC3)OCCO4)cc2CO)cc1)N1CCN(Cc2ccoc2)CC1 | ≤ 5000 nM | ≤ 1000 nM | ≤ 200 nM | ≤ 1000 nM | ≤ 1000 nM | ≤ 1000 nM |  | ≤ 200 nM | < 1000 nM |
| COC1CCC(c2ccc(Oc3ccc(C(=O)N4CCN(Cc5ccc(OC(F)(F)F)cc5)CC4)cc3)c(CO)c2)CC1 (stereo not drawn) | ≤ 200 nM | ≤ 200 nM | ≤ 200 nM | ≤ 200 nM | ≤ 200 nM | ≤ 200 nM | < 1000 nM | ≤ 200 nM |  |
| O=C(c1ccc(Oc2ccc(C3CCC4(CC3)OCCO4)cc2CO)cc1)N1CC2CN(Cc3ccc(Cl)cc3)CC2C1 (stereo not drawn) | ≤ 200 nM | ≤ 1000 nM | ≤ 200 nM | ≤ 200 nM | ≤ 200 nM | ≤ 200 nM | < 1000 nM | ≤ 200 nM |  |
| O=C(c1ccc(Oc2ccc(C3CCC4(CC3)SCCCS4)cc2CO)cn1)N1CCN(Cc2ccc(Cl)cc2)CC1 | ≤ 200 nM | ≤ 200 nM | ≤ 200 nM | ≤ 200 nM | ≤ 200 nM | ≤ 200 nM | < 1000 nM | ≤ 200 nM |  |
| O=C(c1ccc(Oc2ccc(C3CCC4(CC3)OCCO4)cc2CO)cc1)N1CCN(Cc2cccs2)CC1 | ≤ 5000 nM | ≤ 1000 nM | ≤ 200 nM | ≤ 200 nM | ≤ 200 nM | ≤ 1000 nM |  | ≤ 200 nM | < 1000 nM |
| COc1ccc(CN2CCN(C(=O)c3ccc(Oc4ccc(C5CCC(OC)CC5)cc4CO)cn3)CC2)cc1 (stereo not drawn) | ≤ 200 nM | ≤ 200 nM | ≤ 200 nM | ≤ 200 nM | ≤ 200 nM | ≤ 200 nM | < 1000 nM | ≤ 200 nM |  |
| O=C(c1ccc(Oc2ccc(C3CCC4(CC3)OCCO4)cc2CO)cc1)N1CCN(Cc2ccc(O)cc2)CC1 | ≤ 5000 nM | ≤ 200 nM | ≤ 200 nM | ≤ 200 nM | ≤ 200 nM | ≤ 200 nM |  | ≤ 200 nM | < 1000 nM |
| O=C(c1ccc(Oc2ccc(C3CCCCC3)cc2CO)cc1)N1CCN(Cc2ccc(Cl)cc2)CC1 | ≤ 1000 nM | ≤ 200 nM | ≤ 200 nM | ≤ 200 nM | ≤ 200 nM | ≤ 200 nM | < 1000 nM | ≤ 200 nM |  |
| COC1CCC(c2ccc(Oc3ccc(C(=O)N4CCN(Cc5ccc(Cl)cn5)CC4)cc3)c(CO)c2)CC1 (stereo not drawn) | ≤ 200 nM | ≤ 200 nM | ≤ 200 nM | ≤ 200 nM | ≤ 200 nM | ≤ 200 nM | < 1000 nM | ≤ 200 nM |  |
| COC1CCC(c2ccc(Oc3ccc(C(=O)N4CCN(Cc5ccc(S(F)(F)(F)(F)F)cc5)CC4)cc3)c(CO)c2)CC1 (stereo not drawn) | ≤ 200 nM | ≤ 200 nM | ≤ 200 nM | ≤ 200 nM | ≤ 200 nM | ≤ 200 nM | < 1000 nM | ≤ 200 nM |  |
| O=C(c1ccc(Oc2ccc(C3CCC4(CC3)OCCO4)cc2CO)cc1)N1CCN(Cc2ccc(C(F)(F)F)cn2)CC1 | ≤ 200 nM | ≤ 200 nM | ≤ 200 nM | ≤ 200 nM | ≤ 200 nM | ≤ 200 nM |  | ≤ 200 nM | < 1000 nM |
| COC1CCC(c2ccc(Oc3ccc(C(=O)N4CCN(Cc5ccc(C(F)(F)F)cc5)CC4)cc3)c(CO)c2)CC1 (stereo not drawn) | ≤ 200 nM | ≤ 200 nM | ≤ 200 nM | ≤ 200 nM | ≤ 200 nM | ≤ 200 nM | < 1000 nM | ≤ 200 nM |  |
| O=C(c1ccc(Oc2ccc(C3CCCCC3)cc2CO)cc1)N1CCN(Cc2ccc(OC(F)(F)F)cc2)CC1 | ≤ 200 nM | ≤ 200 nM | ≤ 200 nM | ≤ 200 nM | ≤ 200 nM | ≤ 200 nM |  |  |  |
| COc1cc(C2CCC(OC)CC2)ccc1Oc1ccc(C(=O)N2CCN(Cc3ccc(Cl)cc3)CC2)cc1 (stereo not drawn) | ≤ 5000 nM | ≤ 1000 nM | ≤ 200 nM | ≤ 200 nM | ≤ 200 nM | ≤ 200 nM |  |  |  |
| O=C(c1ccc(Oc2ccc(C3CCC4(CC3)OCCO4)cc2CO)cc1)N1CCN(Cc2ccc3ccccc3c2)CC1 |  |  |  |  |  |  |  | ≤ 200 nM | < 1000 nM |
| COc1ccc(CN2CCN(C(=O)c3ccc(Oc4ccc(C5CCC(OC)CC5)cc4O)cn3)CC2)cc1 (stereo not drawn) |  | ≤ 1000 nM | ≤ 200 nM | ≤ 1000 nM | ≤ 1000 nM | ≤ 1000 nM |  |  |  |
| O=C(c1ccc(Oc2ccc(C3CCCCC3)cc2CO)cn1)N1CCN(Cc2ccc(OC(F)(F)F)cc2)CC1 | ≤ 1000 nM | ≤ 200 nM | ≤ 200 nM | ≤ 200 nM | ≤ 200 nM | ≤ 200 nM |  |  |  |
